Literature values in patent US11279682B2 (H. Lundbeck A/S, priority 2015, dated 2022).

Details: known salts, values from the cited reference; cited from earlier work

In the case of Meso-tartrate, the “Solubility” value is listed as 700 µg/mL.
